Screening results: PubChem, Broad Institute
E-selectin induc: induces E-selectin expression in human endothelial cells; 0.37% of 260,000 active; HUVEC E-selectin immunofluorescence imaging; normalized: neutral wells 0, TNF-alpha wells 100; activation, % at 7.58 µM; P16581; AID 686992;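 active means mean E-selectin-positive cell signal at least 10% of the positive control, reached in at least 60% of replicates, without over 20% cell loss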
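Material: HUVEC primary endothelial cells; Amount: 3,000 cells per well; Dosing: single concentration; Medium: EGM-2 growth medium on 0.1% gelatin-coated wells; Read-out basis: percent E-selectin-positive cells; Signal: immunofluorescence imaging; Control set: TNF-alpha, DMSO.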
Yeast UUG start: alters start codon recognition fidelity in yeast. S. cerevisiae UUG-firefly luciferase reporter, luminescence/redox ratio. AID 602363. activity score, % at 18.7 µM. hit rate 0.13% among 350,000;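 active = replicate mean at a twofold rise or more, about +100% in these data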;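 note: firefly luciferase made from a UUG start codon reports start codon fidelity; reporter light over untreated wells divided by growth signal over untreated wells; some hits fall short of that in this replicate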
C2C12 statin: suppressors of simvastatin-induced myotoxicity in C2C12 myotubes. 0.78% of 330,000 active. AID 602340. rescue of ATP level, % at 7.49 µM. ATP luminescence, 48 h; scaled: DMSO 0, geranylgeraniol control 100;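 active means mean ATP rescue above about 67%, or every replicate alone reaching that limit, limit read from the data, passing the limit was not always enough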;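 further: myotubes were challenged with 10 µM simvastatin during compound exposure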
PGC1a acetyl inh: modulators of PGC1a acetylation | U2OS PGC1a acetylation, AlphaScreen anti-acetyl-lysine; with virally co-expressed GCN5 acetyltransferase | inhibition, % at 15.6 µM | 0.17% of 350,000 active;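 active means every replicate shows inhibition of at least 40%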;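 further: 0% = neutral control wells and 100% = positive control wells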
esBAF inh: SWI/SNF esBAF complex inhibition; AID 602393; mouse ES cells, Bmi1-luciferase knock-in reporter, 24 h; 100% = twice the neutral-well signal; reporter increase, % at 12.5 µM; 2% of 350,000 active; in the data active means activation above about 40%;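 further: 0% = median of the plate's neutral control wells and 100% = double that signal; a rise in the Bmi1 reporter signal indicates esBAF inhibition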
PglD DTNB: blocks C. jejuni PglD acetyltransferase activity. 0.098% of 360,000 active. purified PglD enzyme, DTNB colorimetric CoA detection. inhibition, % at 12.5 µM; in the data active means inhibition above about 16%, passing the limit was not always enough
* marks the source's active call; other numbers are inactive results; x = not tested or not shown. A selection: hits, their analogues and other compounds. The true share with any hit is near 2.8%.

1. CCCNC(=O)c1cn(CC)c2cc(N3CCN(C(=O)c4ccco4)CC3)c(F)cc2c1=O
2. O=C(CCN1C(=O)/C(=C/c2cccs2)SC1=S)Nc1ccccc1O
3. O=C1S/C(=C\c2cccs2)C(=O)N1c1ccc(O)cc1
4. O=C1/C(=C/c2cccs2)SC(=S)N1c1ccccc1
5. O=C1/C(=C/c2cccs2)SC(=S)N1c1cccc(O)c1
6. CCCc1cc(=O)[nH]c(SCC(=O)Nc2ccccc2C#N)n1
7. COCc1cc(=O)[nH]c(SCC(=O)Nc2ccccc2)n1
8. Nc1nc(SCC(=O)Nc2ccc(Cl)cc2)[nH]c(=O)c1-c1ccccc1

| Screen / compound no. | 1 | 2 | 3 | 4 | 5 | 6 | 7 | 8 |
| --- | --- | --- | --- | --- | --- | --- | --- | --- |
| E-selectin induc | -0.3 | 29.8* | -0.2 | x | 51.7* | x | x | -2.9 |
| Yeast UUG start | 2.1 | -10.1 | -24.7 | 2.3 | x | -5.6 | -12.6 | -4.3 |
| C2C12 statin | -14.7 | 7.2 | 5.1 | 1.8 | 10.2 | 98.2* | 101.6* | 121.8* |
| PGC1a acetyl inh | -9.1 | 18.8 | 0.0 | -8.5 | -8.1 | -2.3 | 6.1 | 3.0 |
| esBAF inh | 7.5 | -1.2 | 50.1* | 36.3 | 33.0 | 0.6 | 3.3 | -2.0 |
| PglD DTNB | -0.3 | 9.5 | -3.2 | -1.3 | x | 6.4 | -3.1 | -2.5 |

Screen by screen, as entered above.
C2C12 statin, nos. 1 to 8: -14.7, 7.2, 5.1, 1.8, 10.2, 98.2*, 101.6*, 121.8*
esBAF inh, nos. 1 to 8: 7.5, -1.2, 50.1*, 36.3, 33.0, 0.6, 3.3, -2.0
PglD DTNB, nos. 1 to 8: -0.3, 9.5, -3.2, -1.3, x, 6.4, -3.1, -2.5

(continued)
9. COc1ccc(C#Cc2ccc3c(c2)[C@@H]2[C@@H](CCN2C(=O)C2CCCC2)[C@H](CO)N3)cc1
10. COc1ccc(NC(=O)N(C)C[C@H]2OCCCC[C@H](C)Oc3ccc(NC(=O)Nc4c(C)noc4C)cc3C(=O)N([C@H](C)CO)C[C@@H]2C)cc1
11. CCC(=O)N1CC2(C1)CN(C(=O)Nc1ccccc1F)[C@H](CO)c1c2c2ccc(OC)cc2n1C
12. CC1CCc2c(C(=O)Nc3nccs3)csc2C1 (stereo not drawn)
13. CC(C)NC(=O)Nc1ccc2c(c1)C(=O)N([C@H](C)CO)C[C@@H](C)[C@H](CN(C)S(=O)(=O)c1cccs1)OCCCC[C@H](C)O2
14. CCC(=O)Nc1ccc2c(c1)OC[C@H](C)N(Cc1ccncc1)C[C@@H](C)[C@@H](OC)CN(C)C2=O
15. N#Cc1ccc(OCC(=O)N2CCc3ccccc32)cc1
16. O=C(COc1ccc([N+](=O)[O-])cc1Cl)N1CCc2ccccc21

| Screen / compound no. | 9 | 10 | 11 | 12 | 13 | 14 | 15 | 16 |
| --- | --- | --- | --- | --- | --- | --- | --- | --- |
| E-selectin induc | 0.4 | -0.1 | 0.0 | x | x | -0.1 | x | 1.7 |
| Yeast UUG start | x | 0.2 | x | -24.8 | 1.6 | 0.1 | -2.0 | -5.4 |
| C2C12 statin | x | 7.0 | x | x | x | -3.3 | -3.9 | -6.9 |
| PGC1a acetyl inh | -4.2 | -5.7 | 4.1 | -5.6 | -5.2 | 8.7 | -3.0 | 3.7 |
| esBAF inh | x | 0.1 | x | 57.7* | -1.5 | -2.5 | 44.5* | 66.0* |
| PglD DTNB | x | -1.0 | x | -5.4 | 5.4 | -2.8 | 1.9 | -0.4 |

17. COc1ccc(OCC(=O)N2CCc3ccccc32)c([N+](=O)[O-])c1
18. O=C(COc1ccc(F)cc1)N1CCCc2ccccc21
19. Cc1cc(C(=O)OCC(=O)N2CCc3ccccc32)c(C)o1
20. CC(=O)N1[C@@H]2Cn3c(ccc(C4=CCCC4)c3=O)[C@H]1[C@@H](C(=O)NC1CCCCC1)[C@@H]2CO
21. COc1ccc(C(=O)NC(=S)Nc2ccc(CN3CCCCC3)cc2)cc1Cl
22. Cc1ccc(C(=O)NC(=S)Nc2ccc(CN3CCCCC3)cc2)c(C)c1
23. Cc1ccccc1NC(=O)c1ccc(CSc2ncccn2)cc1
24. Cc1ccc(NC(=O)c2ccc(CSc3ccccn3)cc2)cc1

| Screen / compound no. | 17 | 18 | 19 | 20 | 21 | 22 | 23 | 24 |
| --- | --- | --- | --- | --- | --- | --- | --- | --- |
| E-selectin induc | 0.3 | x | x | 0.2 | 0.1 | 26.1* | x | x |
| Yeast UUG start | -5.0 | 7.7 | -4.2 | 9.2 | x | x | -16.3 | -12.3 |
| C2C12 statin | -0.6 | 9.2 | 9.4 | -10.2 | x | -16.7 | 9.0 | -65.5 |
| PGC1a acetyl inh | 9.6 | x | x | x | x | -16.2 | -1.7 | -1.8 |
| esBAF inh | 54.0* | 5.9 | 49.8* | 7.5 | x | -2.0 | 46.3* | 50.1* |
| PglD DTNB | 9.0 | -2.3 | 1.8 | 2.7 | x | x | -2.9 | 8.3 |

25. CS(=O)(=O)NCCNc1ccc(Cl)cc1[N+](=O)[O-]
26. CS(=O)(=O)NCCNc1cc(Cl)ccc1[N+](=O)[O-]
27. COc1ccc(S(=O)(=O)N[C@H]2CC[C@H](CC(=O)O)O[C@H]2CO)cc1
28. CC(C)(C)C(=O)COC(=O)CNC(=O)c1ccc(Oc2ccccc2)cc1
29. COC(=O)c1ccc(COC(=O)CNC(=O)c2ccc(OC)cc2)cc1
30. COc1ccc(CNC(=O)CCOc2ccc(C(C)(C)C)cc2)cc1
31. COc1ccc(C(=O)OCCc2ccc(O)cc2)cc1
32. COc1ccc(S(=O)(=O)N(C)C[C@H]2Oc3c(NS(=O)(=O)c4c(C)noc4C)cccc3C(=O)N([C@H](C)CO)C[C@H]2C)cc1

| Screen / compound no. | 25 | 26 | 27 | 28 | 29 | 30 | 31 | 32 |
| --- | --- | --- | --- | --- | --- | --- | --- | --- |
| E-selectin induc | -0.2 | 95.1* | -0.1 | x | 0.4 | x | 0.0 | -0.2 |
| Yeast UUG start | x | 14.0 | -8.8 | -9.5 | -9.7 | -0.4 | -29.3 | -1.0 |
| C2C12 statin | x | -3.8 | 4.3 | 140.8* | -10.0 | 104.3* | 7.7 | 0.2 |
| PGC1a acetyl inh | x | 0.3 | 8.2 | 1.6 | 4.4 | 10.2 | x | 7.6 |
| esBAF inh | x | -1.8 | 1.7 | -11.9 | 68.4* | -2.6 | 50.3* | 8.3 |
| PglD DTNB | x | 0.2 | 0.3 | -4.4 | 1.8 | -4.2 | 0.5 | -2.5 |

Three compounds from above, showing only C2C12 statin, E-selectin induc and PGC1a acetyl inh:
nr | Molecule | C2C12 statin | E-selectin induc | PGC1a acetyl inh
29 | COC(=O)c1ccc(COC(=O)CNC(=O)c2ccc(OC)cc2)cc1 | -10.0 | 0.4 | 4.4
28 | CC(C)(C)C(=O)COC(=O)CNC(=O)c1ccc(Oc2ccccc2)cc1 | 140.8* | x | 1.6
32 | COc1ccc(S(=O)(=O)N(C)C[C@H]2Oc3c(NS(=O)(=O)c4c(C)noc4C)cccc3C(=O)N([C@H](C)CO)C[C@H]2C)cc1 | 0.2 | -0.2 | 7.6

Continued.
33. COc1ccc(NC(=O)CN(C)C(=O)CCc2ccccc2)cc1
34. COc1ccc(NC(=O)CN(C)C(=O)C2(c3ccccc3)CCCC2)cc1
35. Cc1ccccc1CSCC(=O)Nc1ccccc1-c1ccccc1
36. COc1ccc(NC(=O)CSCc2ccccc2C)cc1
37. CCOc1ccc(NC(=O)CNC(=O)c2ccc(OC)cc2)cc1
38. CCOc1ccc(NC(=O)CNC(=O)c2ccc(OC)c(OC)c2)cc1
39. Cc1ccc(C(=O)NCC(=O)Nc2ccncc2)cc1C
40. CN(C)C(=O)C[C@H]1C[C@@H]2c3cc(NS(C)(=O)=O)ccc3O[C@@H]2[C@@H](CO)O1

| Screen / compound no. | 33 | 34 | 35 | 36 | 37 | 38 | 39 | 40 |
| --- | --- | --- | --- | --- | --- | --- | --- | --- |
| E-selectin induc | 1.0 | -0.3 | 0.2 | x | 73.1* | x | 204.0* | 0.5 |
| Yeast UUG start | -21.8 | -1.5 | x | -9.5 | x | -12.8 | -16.3 | -6.3 |
| C2C12 statin | -2.0 | 0.9 | x | -2.3 | x | x | -2.3 | -5.9 |
| PGC1a acetyl inh | x | 23.4 | -14.9 | 3.2 | -0.8 | -5.6 | x | -14.2 |
| esBAF inh | -6.1 | 55.2* | x | 66.7* | x | -3.9 | 0.1 | 3.0 |
| PglD DTNB | -1.2 | 1.9 | x | 1.2 | x | 0.6 | 0.1 | 0.1 |

41. C[C@H]1CN([C@@H](C)CO)C(=O)c2cc(C3=CCCCC3)cnc2O[C@@H]1CN(C)C(=O)c1ccc2c(c1)OCO2
42. CC(=O)N(C)C[C@@H]1Oc2ncc(-c3cccc(F)c3)cc2C(=O)N([C@H](C)CO)C[C@@H]1C
43. COC(=O)c1ccc(NC(=O)CCOc2ccccc2)cc1
44. COC(=O)c1ccc(N=Nc2ccccc2)cc1
45. COc1ccc(NC(=O)CCOc2ccccc2)cc1
46. COC(=O)c1ccc(OCCOc2ccccc2)cc1
47. COC(=O)c1ccc(O)cc1
48. C[C@@H]1CCCCO[C@@H](CN(C)C(=O)c2ccccc2)[C@@H](C)CN([C@@H](C)CO)C(=O)c2cc(NC(=O)c3ccccc3)ccc2O1
49. O=Nc1c2nc3ccccc3n(O)c-2c2ccccc12
50. COCCOc1ccc(C(F)(F)F)cc1NC(=O)c1ccc(C(F)(F)F)cc1
51. COCCOc1ccc(C(F)(F)F)cc1Nc1nc2ccccc2o1

| Screen / compound no. | 41 | 42 | 43 | 44 | 45 | 46 | 47 | 48 | 49 | 50 | 51 |
| --- | --- | --- | --- | --- | --- | --- | --- | --- | --- | --- | --- |
| E-selectin induc | 1.0 | 0.2 | 0.0 | 4.2 | x | x | 0.0 | x | x | -0.1 | x |
| Yeast UUG start | 4.3 | 8.9 | x | 2.0 | -17.9 | -5.1 | -7.1 | x | -10.1 | -5.6 | -8.1 |
| C2C12 statin | 37.0 | 2.0 | x | 3.1 | 2.2 | -5.9 | 7.8 | x | -2.1 | x | 6.6 |
| PGC1a acetyl inh | -25.6 | 6.6 | x | 0.9 | -1.1 | 1.6 | 2.9 | -0.3 | -61.0 | -9.0 | -22.3 |
| esBAF inh | 3.5 | 3.6 | x | 76.3* | 49.2* | 45.7* | 2.0 | x | 48.3* | x | 62.4* |
| PglD DTNB | -3.6 | -1.7 | x | 1.9 | -4.2 | 2.2 | 1.3 | -1.3 | -5.2 | -1.0 | 10.0 |
